Data as given in ChEMBL document CHEMBL4732055, “Discovery of fast-acting dual-stage antimalarial agents by profiling pyridylvinylquinoline chemical space via copper catalyzed azide-alkyne cycloadditions” (Eur J Med Chem, 2021).

How the values were obtained:
[1] = Stability in mouse liver microsomes assessed as intrinsic clearance at 1 uM incubated for 60 mins in presence of NADPH regenerating system by LC/MS analysis; format: ADME, Microsome; details: 1 h
[2] = Stability in mouse liver microsomes assessed as half life at 1 uM incubated for 60 mins in presence of NADPH regenerating system by LC/MS analysis; format: ADME, Microsome; details: 1 h
[3] = Selectivity index, ratio of EC50 for cytotoxicity against human HepG2 cells to EC50 antiplasmodial activity against chloroquine-resistant Plasmodium falciparum Dd2; format: toxicity, cell-based; details: read-out: Ratio EC50

Which CLH [1] does the source give for O=C1S/C(=C\c2ccccc2)C(=O)N1Cc1cn(CCNc2cc(/C=C/c3ccncc3)nc3ccc(Cl)cc23)nn1 here?
The CLH was 116.67 µL/min/mg.

And the t1/2 [2]?
Its t1/2 is 11.88 min.

For CN1CCN(Cc2cn(CCCCNc3cc(/C=C/c4ccncc4)nc4ccc(Cl)cc34)nn2)CC1, which CLH [1] is on record?
The CLH was 135.75 µL/min/mg.

And the t1/2 [2]?
The t1/2 was 10.21 min.

Which results are given for Clc1ccc2nc(/C=C/c3ccncc3)cc(NCCCCn3cc(CN4CCCCC4)nn3)c2c1?
CLH [1]: 116.86 µL/min/mg; t1/2 [2]: 11.86 min

For Clc1ccc2nc(/C=C/c3ccncc3)cc(NCCCCn3cc(Cn4cccn4)nn3)c2c1, which CLH [1] is on record?
Its CLH is 150.49 µL/min/mg.

And the t1/2 [2]?
Its t1/2 is 9.21 min.

With Clc1ccc2nc(/C=C/c3ccncc3)cc(NCCCCn3cc(CN4CCCC4)nn3)c2c1 as the compound, how does the selectivity ratio [3] read?
Its selectivity ratio is over 36.2.

For Clc1ccc2nc(/C=C/c3ccncc3)cc(NCCCCn3cc(CN4CCOCC4)nn3)c2c1, which CLH [1] is on record?
Its CLH is 173.9 µL/min/mg.

What about the t1/2 [2] of the same compound?
The t1/2 was 7.97 min.
